From paper PMC3796951 (Psychopharmacology, 2012) come the findings set out here.

The chains behind the UniProt entries cited, without tags or fusion partners. Where a name states a change or a piece, a line headed by the entry shows the natural chain unless it says otherwise.
UniProt P08908, whole entry: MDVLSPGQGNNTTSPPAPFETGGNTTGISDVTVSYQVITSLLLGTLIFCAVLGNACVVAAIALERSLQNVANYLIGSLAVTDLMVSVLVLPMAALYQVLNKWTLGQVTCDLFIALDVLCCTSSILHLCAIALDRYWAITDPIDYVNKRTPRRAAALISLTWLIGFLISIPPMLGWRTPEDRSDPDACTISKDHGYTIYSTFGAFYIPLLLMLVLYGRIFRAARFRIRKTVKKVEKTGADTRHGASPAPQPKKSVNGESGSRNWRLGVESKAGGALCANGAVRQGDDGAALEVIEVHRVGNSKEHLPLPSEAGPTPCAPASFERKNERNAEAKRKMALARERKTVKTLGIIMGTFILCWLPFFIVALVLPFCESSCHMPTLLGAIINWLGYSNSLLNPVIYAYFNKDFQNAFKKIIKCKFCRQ
UniProt P50406, whole entry: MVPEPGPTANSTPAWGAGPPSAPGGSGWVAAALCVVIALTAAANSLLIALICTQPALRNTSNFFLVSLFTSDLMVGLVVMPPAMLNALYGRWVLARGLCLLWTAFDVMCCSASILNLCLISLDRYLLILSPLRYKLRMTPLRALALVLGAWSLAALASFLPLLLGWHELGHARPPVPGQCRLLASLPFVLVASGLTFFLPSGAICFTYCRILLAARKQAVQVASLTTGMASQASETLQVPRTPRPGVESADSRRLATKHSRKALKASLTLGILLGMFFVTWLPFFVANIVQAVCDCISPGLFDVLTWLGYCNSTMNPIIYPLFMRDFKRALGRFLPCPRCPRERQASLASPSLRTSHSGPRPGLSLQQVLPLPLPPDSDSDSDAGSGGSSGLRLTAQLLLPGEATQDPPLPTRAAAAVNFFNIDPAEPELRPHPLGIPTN
UniProt P28221: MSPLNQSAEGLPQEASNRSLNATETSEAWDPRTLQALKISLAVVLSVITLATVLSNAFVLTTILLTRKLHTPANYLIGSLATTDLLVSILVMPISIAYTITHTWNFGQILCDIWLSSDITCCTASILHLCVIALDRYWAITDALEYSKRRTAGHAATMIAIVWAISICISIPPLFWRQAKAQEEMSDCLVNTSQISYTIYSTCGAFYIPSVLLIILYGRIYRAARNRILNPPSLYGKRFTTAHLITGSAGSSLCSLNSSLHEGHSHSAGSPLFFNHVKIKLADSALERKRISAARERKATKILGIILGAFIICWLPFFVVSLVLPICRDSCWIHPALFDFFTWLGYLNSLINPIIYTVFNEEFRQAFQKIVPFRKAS

For one experiment, the target named is 5-HT1A (Homo sapiens, UniProt P08908). As to the kind of experiment: Radioligand binding. To be noted: read-out: Ki nM (±SEM); [3H]8-OH-DPAT, cloned human receptor.
Another experiment addresses T1, 5-HT2C (Rattus norvegicus, UniProt P08909).
T1 sequence (P08909 33-460): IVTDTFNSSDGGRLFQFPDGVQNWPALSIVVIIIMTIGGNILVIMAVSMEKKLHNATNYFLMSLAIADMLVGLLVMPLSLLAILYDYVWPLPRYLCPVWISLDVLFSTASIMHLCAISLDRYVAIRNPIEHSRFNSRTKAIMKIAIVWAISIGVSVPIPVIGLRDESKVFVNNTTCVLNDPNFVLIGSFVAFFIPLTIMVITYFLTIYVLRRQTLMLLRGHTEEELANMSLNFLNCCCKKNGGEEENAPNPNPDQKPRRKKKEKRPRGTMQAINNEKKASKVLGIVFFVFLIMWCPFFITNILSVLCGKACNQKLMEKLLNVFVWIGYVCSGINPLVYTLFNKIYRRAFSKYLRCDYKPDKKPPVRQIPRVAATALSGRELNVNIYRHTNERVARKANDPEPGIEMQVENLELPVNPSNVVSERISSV
In words: Radioligand binding. To be noted: read-out: Ki nM (±SEM); [3H]mesulergine, cloned rat receptor.

In the next experiment the target is 5-HT6 (Homo sapiens, UniProt P50406). As to the kind of experiment: Radioligand binding. The settings on record: read-out: Ki nM (±SEM); [3H]LSD, cloned human receptor.
In another experiment the target is 5-HT1D (Homo sapiens, UniProt P28221). The settings on record: read-out: Ki nM (±SEM); [3H]GR125743, cloned human receptor.

Structures can show the parent of a compound that is named as a salt.

What is called Ki is the dissociation constant of the complex between target and ligand, obtained from inhibition or displacement. Turning to `COc1ccc2[nH]cc(CCN(C)C)c2c1` [α,α,β,β-tetradeutero-5-MeO-DMT, α,α,β,β-Tetradeutero-5-methoxy-N,N-dimethyltryptamine (2:1) fumarate], the Ki at 5-HT1A stood at 3 nM; on 5-HT2C it was 286 nM; on 5-HT6 it was 10 nM; on 5-HT1D, 1.7 nM.
